Source: ChEMBL document CHEMBL4229390, “Structure-guided evolution of a 2-phenyl-4-carboxyquinoline chemotype into PPARα selective agonists: New leads for oculovascular conditions” (Bioorg Med Chem Lett, 2018)

Tests used:
[1] = target: T1, Peroxisome proliferator-activated receptor alpha (Homo sapiens) (UniProt Q07869); experiment: Agonist activity at human PPARalpha at 10 uM after 22 to 24 hrs by luciferase reporter gene assay
T1 sequence (whole entry): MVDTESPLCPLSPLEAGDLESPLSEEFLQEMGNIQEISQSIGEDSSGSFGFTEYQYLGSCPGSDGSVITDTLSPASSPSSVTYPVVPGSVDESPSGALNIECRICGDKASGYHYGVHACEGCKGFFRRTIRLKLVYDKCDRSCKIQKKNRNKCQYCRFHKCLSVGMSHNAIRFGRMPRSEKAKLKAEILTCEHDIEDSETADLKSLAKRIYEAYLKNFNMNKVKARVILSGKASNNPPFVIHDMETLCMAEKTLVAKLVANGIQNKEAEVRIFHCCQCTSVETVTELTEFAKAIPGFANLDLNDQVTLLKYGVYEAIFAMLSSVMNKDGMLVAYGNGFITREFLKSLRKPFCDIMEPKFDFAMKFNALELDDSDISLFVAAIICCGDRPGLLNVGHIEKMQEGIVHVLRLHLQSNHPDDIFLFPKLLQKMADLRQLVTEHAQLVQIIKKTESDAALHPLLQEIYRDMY
In short: (§1)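 hPPARα luciferase reporter cells; read-out via oxyluciferin production. Single-concentration screen at 5 and 50 μM; GW590735 control at 5 and 10 μM. Fold-induction over DMSO control ± S.E. (n = 3), single experiment.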

[2] = target: T1, Peroxisome proliferator-activated receptor alpha (Homo sapiens); experiment: Agonist activity at human PPARalpha at 5 uM after 22 to 24 hrs by luciferase reporter gene assay; in short: as §1

Activity [1]: Active | Activity [2]: Active
SMILES: COc1ccc(COc2ccc(CNc3cccc(C(=O)O)c3)cc2)cc1

Active and inactive are the calls of the source. No cut-off for these calls is given here.
